Results taken from PubChem BioAssay AID687014 (The Scripps Research Institute Molecular Screening Center, 2013).
The entries are a selection whose mix differs from that of the whole data set. Activity calls are given as the source filed them.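 The calls were made as follows: active = activation above a cutoff set at the mean of all screened compounds plus 3 SD (cut at about 10% in these data); inactive = the rest.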

These molecules were tested on Nuclear hormone receptor DAF-12 (Heterodera glycines), GAL4 fusion (assay: H. glycines DAF-12 receptor agonists, primary screen, cell-based, luminescence, HEK293, GAL4 fusion, UAS-luciferase (AID 687014;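 also: 0% = DMSO wells and 100% = sodium butyrate wells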)). Details: HEK293 GAL4-hgDAF12 UAS-luciferase reporter, agonist luminescence; at 6.8 µM; hits give high values; normalized to butyrate control.

| Structure (SMILES) | activation |
| --- | --- |
| O=C(OC1CN2CCC1CC2)c1ccccc1 (centres undefined) | inactive: -4.91% |
| CCC(=O)N1C2C3N(C(=O)CC)C1C1N(C(=O)CC)C(C(N1C(=O)CC)N3C(=O)CC)N2C(=O)CC | inactive: 0.31% |
| COC(=O)c1cc2c(s1)N=C(c1ccccc1)N(C)P2(=O)N1CCOCC1 (centres undefined) | inactive: 5.43% |
| CC(=O)NC(SC(=S)N(CC(C)C)CC(C)C)C(Cl)(Cl)Cl (centres undefined) | inactive: 0.06% |
| Cc1ccc(OP(=O)(Nc2ccccn2)Oc2ccc(C)cc2)cc1 | inactive: -0.1% |
| Cc1ccccc1OP(=O)(Nc1ccccn1)Oc1ccccc1C | inactive: -3.21% |
| CC(NC(=O)COC(=O)C(O)(c1ccccc1)c1ccccc1)c1ccccc1 (centres undefined) | inactive: -0.17% |
| CN(C)C(=O)Oc1noc2ccccc12 | inactive: -1.39% |
| O=c1c2cc([N+](=O)[O-])ccc2[nH]c2c([N+](=O)[O-])cc([N+](=O)[O-])cc12 | inactive: -3.56% |
| c1ccc(-c2nn[nH]n2)c(-c2nn[nH]n2)c1 | inactive: 1.02% |
| Cc1ccc(NP(=O)(Oc2cccc(C)c2)Oc2cccc(C)c2)nc1 | inactive: -0.62% |
| O=C(NC1CCS(=O)(=O)C1)NP(=S)(Oc1ccccc1)Oc1ccccc1 (centres undefined) | inactive: -0.76% |
| CCNC(=S)/N=C(\N)N[N+](=O)[O-] | inactive: -2.97% |
| O=P1(N(CCCl)CCCl)OCCC2CCCCN21 (centres undefined) | inactive: 0.87% |
| Cc1ccccc1CN(C)C(=O)COC(=O)C(O)(c1ccccc1)c1ccccc1 | inactive: -0.55% |
| C[C@@H]1C=CCP(=O)(Oc2ccccc2)O1 (some centres undefined) | inactive: 2.48% |
| C[C@H]1OP(=O)(Oc2ccccc2)C[C@@H]2O[C@@H]21 (some centres undefined) | inactive: 3.55% |
| N#C/C(=C\c1ccc(N(CCBr)CCBr)cc1)C(N)=O | inactive: 1.74% |
| CC(=O)c1ccc(N2CC2c2ccncc2)cc1 (centres undefined) | inactive: 0.64% |
| COC(=O)C1(C)COP(=O)(NCc2ccccc2)OC1 (centres undefined) | inactive: -3.66% |
| CC(=O)Nc1ccc([As](=O)(O)O)c(O)c1 | inactive: -0.27% |
| CC(=O)Nc1ccc(Oc2c([N+](=O)[O-])cc([N+](=O)[O-])cc2[N+](=O)[O-])cc1 | inactive: -1.21% |

| Structure (SMILES) | activation |
| --- | --- |
| O=P1(Nc2nc3ccc(Cl)cc3s2)COc2ccccc2O1 (centres undefined) | inactive: 2.52% |
| CCOc1ccc(C2=NCC(CBr)S2)cc1 (centres undefined) | inactive: -1.93% |
| CC(C)(C)C(=O)NC(Sc1ccccc1)C(Cl)(Cl)Cl (centres undefined) | inactive: -1.58% |
| CCc1cc(O)c([N+](=O)[O-])c(C)c1[N+](=O)[O-] | inactive: -0.65% |
| O=P(Nc1nccs1)(c1ccccc1)c1ccccc1 | inactive: -2.69% |
| CC(C)C(=O)NC(Sc1ccccc1)C(Cl)(Cl)Cl (centres undefined) | inactive: 1.52% |
| c1nnnn1CCn1cnnn1 | inactive: -1.23% |
| O=[As](O)(c1ccccc1)c1ccc(O)cc1 | inactive: -0.82% |
| CC(=O)NC(SC(=S)N(C)C)C(Cl)(Cl)Cl (centres undefined) | inactive: -3.82% |
| O=[N+]([O-])c1ncn(CCn2cnc([N+](=O)[O-])n2)n1 | inactive: 2.77% |
| O=C(OC1CN2CCC1CC2)c1cccc(Cl)c1 (centres undefined) | inactive: 7.44% |
| C/C(N)=N\P(=O)(OCc1ccccc1)OCc1ccccc1 | inactive: 2.1% |
| Nc1ccc([As](=O)(O)c2ccc([N+](=O)[O-])cc2)cc1 | inactive: 1.16% |
| C(Cc1nn[nH]n1)Cc1nn[nH]n1 | inactive: -1.98% |
| CN(C)C1(CNC(=O)c2ccc(Cl)c(S(N)(=O)=O)c2)CCCCC1 | inactive: 1.78% |
| O=P(Nc1ccccn1)(c1ccc(Br)cc1)c1ccc(Br)cc1 | inactive: 0.68% |
| Nc1ccc(CCCCOc2ccccc2)cc1 | inactive: 8.61% |
| COc1ccc(N)c([N+](=O)[O-])c1[N+](=O)[O-] | inactive: -3.21% |
| O=P(Nc1nc2ccccc2s1)(c1ccccc1)c1ccccc1 | inactive: 4.55% |
| C[C@H]1OP(=O)(Oc2ccccc2)[C@H](O)[C@H](O)[C@H]1N=[N+]=[N-] (some centres undefined) | inactive: 0.38% |
| O=[N+]([O-])c1ncn(CCn2ncnc2[N+](=O)[O-])n1 | inactive: 0.62% |
| CC(C)(C)C(=O)NC(Sc1ccncn1)C(Cl)(Cl)Cl (centres undefined) | inactive: -0.92% |

| Structure (SMILES) | activation |
| --- | --- |
| O=C(O)CNc1ccc([As](=O)(O)O)cc1 | inactive: 0.38% |
| O=[N+]([O-])c1cccc(NC2=NCC(CBr)S2)c1 (centres undefined) | inactive: 0.08% |
| COC(=O)C1(C)COP(=O)(Nc2ccccc2)OC1 (centres undefined) | inactive: -0.26% |
| O=P1(N(CCCl)CCCl)OCCCS1 (centres undefined) | inactive: -0.25% |
| O=C(Nc1cc([As](=O)(O)O)ccc1O)c1ccccc1 | inactive: -2.92% |
| CCN(/C(=N/P(=O)(N1CCOCC1)N1CCOCC1)N1CCOCC1)c1ccc(OC)cc1 | inactive: 4.66% |
| Nc1ccc([As](=O)(O)c2ccc(N)cc2)cc1 | inactive: -4.05% |
| C[N+]1=C2C=CC=CC=C2SC12C([N+](=O)[O-])=CC([N+](=O)[O-])=C[C-]2[N+](=O)[O-] (centres undefined) | inactive: -10.8% |
| c1cc(-c2nn[nH]n2)ccc1-c1nn[nH]n1 | inactive: -1.72% |
| CC1CCN(C(=O)Oc2c(Cl)cc(Cl)c3cccnc23)CC1 | inactive: 0.18% |
| CC(C)=N/N=C(\N)N[N+](=O)[O-] | inactive: 1.63% |
| CC(C)c1nc(Nc2ccccc2)n(P(=O)(N(C)C)N(C)C)n1 | inactive: -0.29% |
| CN(C)C(=O)OCCc1n(C)cc[n+]1C | inactive: 2.2% |
| COc1ccc(C2=NCC(CBr)S2)cc1 (centres undefined) | inactive: 1.91% |
| Cc1ccc(NP(=O)(Oc2ccccc2)Oc2ccccc2)nc1 | inactive: 0.77% |
| O=[N+]([O-])c1cc([N+](=O)[O-])c(CCNc2ccccc2)c([N+](=O)[O-])c1 | inactive: -1.13% |
| CCc1nc2c(n1)c1c(non1O)c1c2no[n+]1[O-] | inactive: -2.78% |
| CC(=O)N1C2C3N(C(C)=O)C1C1N(C(C)=O)C(C(N1C(C)=O)N3C(C)=O)N2C(C)=O | inactive: -0.05% |
| O=[N+]([O-])c1cccc2n[nH]nc12 | inactive: -1.63% |
| Oc1ccccc1CNc1ccccn1 | inactive: -0.34% |
